Experimental findings from ChEMBL document CHEMBL5029184, “Colloidal Aggregators in Biochemical SARS-CoV-2 Repurposing Screens” (J Med Chem, 2021) are described below.

The experiment is filed under the species Sus scrofa. Description: Inhibition of porcine heart malate dehydrogenase assessed as critical aggregation concentration preincubated for 5 min followed by nicotinamide adenine dinucleotide addition and monitered for 90 sec by spectrophotometric method. Format: tissue-based.

With `O=C1CCc2ccc(OCCCCN3CCN(c4cccc(Cl)c4Cl)CC3)cc2N1`, the CAC came out at 15 µM. Next, `Oc1c(I)cc(Cl)c2cccnc12` [CLIOQUINOL]: 15 µM.
